According to patent US20230416457A1, “DUAL MODALITY UPS […] TUMOR ACIDOSIS IMAGING” (The Board of Regents of The University of Texas System, priority 2018, published 2023):

Tested on: orthotopic HN5 head and neck tumors
Conditions: mouse, in vivo

HN5 tumor uptake, FDG-PET: 5.4±0.7 % ID/g
non-specific uptake in brain, FDG-PET: 7.9±1.6 % ID/g
non-specific uptake in brown fats, FDG-PET: 8.1±1.3 % ID/g
non-specific uptake in tensed (striated) muscles, FDG-PET: 6.3±0.3 % ID/g
Substance: ^18F-fluorodeoxyglucose [FDG]
